Data taken from paper PMC7394479 (Journal of medicinal chemistry, 2020).

By UniProt entry, the sequences of proteins in these tests, tags left out. Where a name states a change or a piece, a line headed by the entry shows the natural chain unless it says otherwise.
UniProt P43116: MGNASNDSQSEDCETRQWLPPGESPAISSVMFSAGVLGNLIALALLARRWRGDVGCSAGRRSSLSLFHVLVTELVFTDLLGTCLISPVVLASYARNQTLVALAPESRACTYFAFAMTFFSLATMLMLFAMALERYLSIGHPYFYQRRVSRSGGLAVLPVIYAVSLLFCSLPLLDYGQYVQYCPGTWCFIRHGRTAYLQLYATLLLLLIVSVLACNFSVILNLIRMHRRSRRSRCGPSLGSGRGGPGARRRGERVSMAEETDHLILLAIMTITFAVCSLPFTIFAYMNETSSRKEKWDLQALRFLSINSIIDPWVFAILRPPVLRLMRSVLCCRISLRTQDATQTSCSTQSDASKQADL

How the values were obtained:
MDR1-MDCK cell line = test: Permeability across MDR1-expressed MDCK cell monolayers
[1] = Mouse liver microsomal stability; conditions: for fold higher half-life in mouse liver microsomes: 24i vs 20o, 20c vs 20b, 20f vs 20e
human EP2 receptor = human EP2 receptor (Homo sapiens, UniProt P43116); test: Cell-based cAMP TR-FRET assay, Schild KB against PGE2 at EP2; conditions: comparator 2a

efflux pump substrate status (MDR1-MDCK cell line)	fold higher half-life in mouse liver microsomes [1]	SMILES	further results
may be a substrate for efflux pumps		COc1ccccc1-c1ncc(C(=O)NCCc2c(C)[nH]c3ccccc23)cn1 [14a, 2-(2-Methoxyphenyl)-N-(2-(2-methyl-1H-indol-3-yl)ethyl)pyrimidine-5-carboxamide]	
	2 fold	Cc1[nH]c2ccccc2c1CCNC(=O)c1cnc(Nc2cc(F)ccn2)nc1 [20c, 2-((4-Fluoropyridin-2-yl)amino)-N-(2-(2-methyl-1H-indol-3-yl)ethyl)pyrimidine-5-carboxamide]	

Second part, the molecule before the results:

SMILES	efflux pump substrate status (MDR1-MDCK cell line)	fold higher half-life in mouse liver microsomes [1]	further results
Cc1[nH]c2ccccc2c1CCNC(=O)c1ccc(-c2nnn[nH]2)cc1 [compound 3]	not a substrate of efflux pumps		
COc1cccc(-c2ccc(C(=O)NCCc3c(C)[nH]c4ccccc34)cn2)c1 [8b, 6-(3-Methoxyphenyl)-N-(2-(2-methyl-1H-indol-3-yl)ethyl)nicotinamide]			fold improved EP2 potency in comparison to 2a (human EP2 receptor): 2 fold
Cc1cc(C)nc(Nc2ncc(C(=O)NCC(O)c3c(C)[nH]c4ccccc34)cn2)c1 (stereo not drawn) [24i, 2-((4,6-Dimethylpyridin-2-yl)amino)-N-(2-hydroxy-2-(2-methyl-1H-indol-3-yl)ethyl)pyrimidine-5-carboxamide]		3 fold	half-life at 1 μM ([1]; mouse, pooled liver microsomes): 57 min
